# Binding of CDR-mutated scFvs to a peptide of the spike HR2 region

Antigen: PDVDLGDISGINAS, a 14-residue peptide of the SARS-CoV-2 spike HR2 region.

Parent scFv Ab-14: VH joined to VL by a 15-residue (Gly4Ser)3 linker. Changes lie in the light chain CDRs alone.
VH: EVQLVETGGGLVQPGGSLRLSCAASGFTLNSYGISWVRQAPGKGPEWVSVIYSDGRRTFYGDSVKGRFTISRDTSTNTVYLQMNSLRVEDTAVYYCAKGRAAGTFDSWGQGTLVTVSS
VL: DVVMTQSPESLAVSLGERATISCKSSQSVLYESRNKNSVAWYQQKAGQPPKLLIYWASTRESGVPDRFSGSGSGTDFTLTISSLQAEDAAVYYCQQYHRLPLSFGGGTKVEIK

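The starting antibody came from a phage panning campaign against this peptide. These sequences belong to a second round, designed from the earlier measurements on random variants of the parent. Group labels follow the data file (Ctrl: baseline library sampled from a position-specific scoring matrix, with some repeated check sequences; Rand: our label for a block that the file lists under HC and that is probably the random mutants of the ten best first-round binders; En: ensemble of fine-tuned language models; GP: Gaussian process model; HC: hill climbing; Gen: genetic algorithm; Gibbs: Gibbs sampling; a sequence that several methods proposed may carry one label only). In AlphaSeq, yeast of one mating type display the scFv and yeast of the other type display the target. After mating in shaken culture at 30 °C for 16 h, diploids were selected and their barcode pairs sequenced. Read counts were normalised to the haploid input and turned into Kd by a linear fit to BCL2-family pairs of known affinity, for each replicate. Mating was done six times.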

Variants are written as CDR1, CDR2 and CDR3 of the light chain (limits as in the source). Parent: KSSQSVLYESRNKNSVA, WASTRES, QQYHRLPLS.
Scale: log10 of Kd in nM, estimated from mating counts; low values are strong binders.
Averages over replicates are reported, and they cover detected replicates only.
An entry "no signal" has no value in the source: the pair was not observed among the diploids in any replicate. This suggests poor binding but is not conclusive.

{"CDR-L1": "KLGQATAMTSRMKNNVA", "CDR-L2": "DLNERER", "CDR-L3": "QQYHRLPLS", "group": "En_HC", "mean, log10 nM": "-0.04", "detected": "6/6", "signal with controls": "0/18"}
{"CDR-L1": "KLSQVTHSESRNKNSIA", "CDR-L2": "EMVTREY", "CDR-L3": "QQYDRLPLS", "group": "En_HC", "mean, log10 nM": "0.87", "detected": "6/6", "signal with controls": "1/18"}
{"CDR-L1": "MISDLTGYGSRNKNSVA", "CDR-L2": "DLSTRGS", "CDR-L3": "QQYHRLPLS", "group": "En_HC", "mean, log10 nM": "0.25", "detected": "6/6", "signal with controls": "1/18"}
{"CDR-L1": "HISMMVGTKGYNKNSVA", "CDR-L2": "NAESRED", "CDR-L3": "QQYHRLPLS", "group": "En_HC", "mean, log10 nM": "1.87", "detected": "6/6", "signal with controls": "2/18"}
{"CDR-L1": "KSSNSVTYESRNKNSVA", "CDR-L2": "WATTRES", "CDR-L3": "QQYHRLPLS", "group": "Ctrl", "mean, log10 nM": "2.29", "detected": "2/6", "signal with controls": "0/18"}
{"CDR-L1": "KFSQSWLYESRVKNNVA", "CDR-L2": "NASQRES", "CDR-L3": "QMYHRLPLS", "group": "GP_Gibbs", "mean, log10 nM": "2.03", "detected": "3/6", "signal with controls": "0/18"}
{"CDR-L1": "KSQCGVLYESRNKNSVA", "CDR-L2": "GASTRES", "CDR-L3": "QQYHRLPLS", "group": "GP_HC", "mean, log10 nM": "0.25", "detected": "6/6", "signal with controls": "1/18"}
{"CDR-L1": "KWSQSVLGEERNKMSVA", "CDR-L2": "NASQREE", "CDR-L3": "QQYHRLPLS", "group": "GP_Gibbs", "mean, log10 nM": "0.55", "detected": "6/6", "signal with controls": "0/18"}
{"CDR-L1": "KLSQSVLYEWGNKNSHA", "CDR-L2": "WASTRES", "CDR-L3": "QQYHRLPLS", "group": "Ctrl", "mean, log10 nM": "no signal", "detected": "0/6", "signal with controls": "0/18"}
{"CDR-L1": "KSSQSVLYEWRNKNSVA", "CDR-L2": "NASTAES", "CDR-L3": "QQYHRLPLS", "group": "Ctrl", "mean, log10 nM": "2.18", "detected": "6/6", "signal with controls": "1/18"}
{"CDR-L1": "KLQQSWGYESRNKNSVA", "CDR-L2": "HASTRES", "CDR-L3": "QQYHRLPLS", "group": "GP_Gen", "mean, log10 nM": "0.02", "detected": "6/6", "signal with controls": "2/18"}
{"CDR-L1": "TLYDATLMESRNKNPIA", "CDR-L2": "DVSTRPS", "CDR-L3": "QQYHRLPLS", "group": "En_HC", "mean, log10 nM": "1.15", "detected": "6/6", "signal with controls": "2/18"}
{"CDR-L1": "KQSQEVLGESRNKNSVA", "CDR-L2": "DASTRES", "CDR-L3": "QQYHRLPLS", "group": "GP_HC", "mean, log10 nM": "0.68", "detected": "6/6", "signal with controls": "1/18"}
{"CDR-L1": "MLGDVAFGLQRKHNSVA", "CDR-L2": "DNSTRES", "CDR-L3": "QQYDRLPLS", "group": "En_Gen", "mean, log10 nM": "1.52", "detected": "6/6", "signal with controls": "0/18"}
{"CDR-L1": "KVSQSQLYESRMKQSVA", "CDR-L2": "NASERES", "CDR-L3": "QQYHRLPLS", "group": "GP_Gibbs", "mean, log10 nM": "0.34", "detected": "6/6", "signal with controls": "0/18"}
{"CDR-L1": "KVQQSQLYESRNKNSVA", "CDR-L2": "NASTRES", "CDR-L3": "QQYHRLPLS", "group": "GP_Gen", "mean, log10 nM": "0.07", "detected": "6/6", "signal with controls": "2/18"}
{"CDR-L1": "KSSRSWLYESRNKNSVA", "CDR-L2": "GASTRES", "CDR-L3": "HQYHRLPLS", "group": "Rand", "mean, log10 nM": "2.28", "detected": "6/6", "signal with controls": "1/18"}
{"CDR-L1": "KLSMSQLYEWRNFNSVA", "CDR-L2": "NASTREE", "CDR-L3": "QQYHRLPLS", "group": "GP_Gibbs", "mean, log10 nM": "-0.17", "detected": "6/6", "signal with controls": "5/18"}
{"CDR-L1": "SLTSHEEEKEGAEASVA", "CDR-L2": "NAMMLES", "CDR-L3": "QQYHRLPLM", "group": "En_Gibbs", "mean, log10 nM": "0.84", "detected": "6/6", "signal with controls": "2/18"}
{"CDR-L1": "VMQMQQDRMQDAKQNIA", "CDR-L2": "GVDMRET", "CDR-L3": "QQYFRLPFL", "group": "En_Gibbs", "mean, log10 nM": "0.05", "detected": "6/6", "signal with controls": "3/18"}
{"CDR-L1": "KLSQSELMESRNKNSVA", "CDR-L2": "EASTRES", "CDR-L3": "QQYHRLPLS", "group": "GP_Gen", "mean, log10 nM": "0.65", "detected": "6/6", "signal with controls": "1/18"}
{"CDR-L1": "KYSQSMLYESRNKNNVA", "CDR-L2": "EASTRES", "CDR-L3": "QQYHRLPLS", "group": "GP_Gibbs", "mean, log10 nM": "-0.30", "detected": "6/6", "signal with controls": "2/18"}
{"CDR-L1": "TISNVMNTLTRHGNNVA", "CDR-L2": "DLAERED", "CDR-L3": "QQYFRLPLS", "group": "En_Gen", "mean, log10 nM": "-0.04", "detected": "6/6", "signal with controls": "0/18"}
{"CDR-L1": "KWFQSVLMESMLVNSVA", "CDR-L2": "NASQRED", "CDR-L3": "QQYHRLPLS", "group": "GP_Gibbs", "mean, log10 nM": "0.89", "detected": "6/6", "signal with controls": "2/18"}
{"CDR-L1": "VLSQSVLYESRNKNSVA", "CDR-L2": "EASTRES", "CDR-L3": "QQYHRLPLS", "group": "GP_Gen", "mean, log10 nM": "-0.32", "detected": "6/6", "signal with controls": "1/18"}
{"CDR-L1": "KLSQSELYESRNKNSVA", "CDR-L2": "NANTRMS", "CDR-L3": "QQYHRLPLS", "group": "GP_Gen", "mean, log10 nM": "-0.16", "detected": "6/6", "signal with controls": "1/18"}
{"CDR-L1": "KSSQDVLYESKNKNSVA", "CDR-L2": "GASTRES", "CDR-L3": "QQYHRLPLS", "group": "Ctrl", "mean, log10 nM": "-0.09", "detected": "6/6", "signal with controls": "0/18"}

A sequence measured in both rounds can read differently, since the two assays cover different ranges.
In the paper, a design with two or fewer of six values counts as a poor binder.
As a blank, each scFv also met three strains without target: over all light chain designs, 4% of these pairings were detected, typically at 2.64 and seldom below 1.59. Also given: how often the same scFv was detected with the empty control strains.

Reference: Li et al. 2023, doi:10.1038/s41467-023-39022-2. File: FLAb, binding data.